Values of other authors, collected in publication PMC11416411, “TDP-43 regulates LC3ylation in neural tissue through ATG4B cryptic splicing inhibition” (Acta Neuropathologica, 2024).

System: ALS
Settings: ALS patients; no reference given; cited from earlier work

Nc1nc2ccc(OC(F)(F)F)cc2s1 [Riluzole]
prolongation of survival: two to six
